PMC6553708 (PLoS ONE, 2019)

Chains of the proteins cited; added tags and fusions are not shown.
UniProt P21554, whole entry: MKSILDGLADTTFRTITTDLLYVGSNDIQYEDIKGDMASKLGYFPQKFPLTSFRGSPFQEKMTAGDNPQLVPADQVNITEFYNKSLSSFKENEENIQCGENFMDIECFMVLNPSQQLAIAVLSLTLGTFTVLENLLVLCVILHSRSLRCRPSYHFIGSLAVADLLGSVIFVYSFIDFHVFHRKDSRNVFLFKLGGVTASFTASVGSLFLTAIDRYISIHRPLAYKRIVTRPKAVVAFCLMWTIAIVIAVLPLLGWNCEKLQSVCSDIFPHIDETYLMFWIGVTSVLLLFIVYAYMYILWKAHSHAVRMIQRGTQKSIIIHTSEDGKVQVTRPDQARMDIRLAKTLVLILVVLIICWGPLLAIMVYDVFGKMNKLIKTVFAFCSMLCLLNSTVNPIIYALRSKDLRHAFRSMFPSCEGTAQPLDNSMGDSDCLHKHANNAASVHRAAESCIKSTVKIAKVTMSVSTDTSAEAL
UniProt P23975, whole entry: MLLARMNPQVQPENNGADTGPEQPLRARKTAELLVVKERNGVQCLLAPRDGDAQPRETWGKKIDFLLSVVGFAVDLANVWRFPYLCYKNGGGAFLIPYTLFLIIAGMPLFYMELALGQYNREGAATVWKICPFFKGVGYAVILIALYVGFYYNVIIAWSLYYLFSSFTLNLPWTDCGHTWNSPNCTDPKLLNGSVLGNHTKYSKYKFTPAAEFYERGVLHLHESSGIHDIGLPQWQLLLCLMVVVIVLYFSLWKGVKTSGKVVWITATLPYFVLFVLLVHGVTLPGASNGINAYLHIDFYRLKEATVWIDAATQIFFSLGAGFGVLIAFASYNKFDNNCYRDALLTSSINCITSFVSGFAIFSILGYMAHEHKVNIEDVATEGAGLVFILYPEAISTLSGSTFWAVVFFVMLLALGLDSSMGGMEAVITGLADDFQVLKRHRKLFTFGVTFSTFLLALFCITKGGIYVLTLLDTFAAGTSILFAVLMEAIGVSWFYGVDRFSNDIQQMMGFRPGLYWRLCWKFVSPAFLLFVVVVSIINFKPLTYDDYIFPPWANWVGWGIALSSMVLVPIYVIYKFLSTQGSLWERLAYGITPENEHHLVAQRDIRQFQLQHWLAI
UniProt Q01959, whole entry: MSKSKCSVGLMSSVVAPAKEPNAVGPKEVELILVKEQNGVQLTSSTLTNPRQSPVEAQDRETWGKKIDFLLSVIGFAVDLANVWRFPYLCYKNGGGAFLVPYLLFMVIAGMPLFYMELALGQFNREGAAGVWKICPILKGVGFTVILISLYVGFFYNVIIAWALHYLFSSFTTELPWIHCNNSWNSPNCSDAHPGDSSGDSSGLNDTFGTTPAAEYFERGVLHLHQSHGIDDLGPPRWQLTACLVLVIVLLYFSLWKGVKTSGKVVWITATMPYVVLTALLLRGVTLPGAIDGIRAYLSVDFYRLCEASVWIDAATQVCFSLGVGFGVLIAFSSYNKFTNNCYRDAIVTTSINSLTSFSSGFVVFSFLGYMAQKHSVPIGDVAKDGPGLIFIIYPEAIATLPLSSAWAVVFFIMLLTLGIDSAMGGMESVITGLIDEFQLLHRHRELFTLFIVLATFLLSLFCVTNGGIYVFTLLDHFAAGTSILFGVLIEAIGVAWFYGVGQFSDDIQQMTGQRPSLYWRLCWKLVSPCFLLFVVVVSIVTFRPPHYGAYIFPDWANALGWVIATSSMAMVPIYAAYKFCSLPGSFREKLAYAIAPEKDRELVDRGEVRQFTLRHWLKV

Columns and labels:
[1] = molecular target: T1, Cannabinoid Receptor Type 1 (CB1) (Homo sapiens, UniProt P21554); set-up: membranes used; details: read-out: Target Binding Affinity Determined by Competition Radioligand Binding–KI, CB1
[2] = molecular target: T2, Norepinephrine Transporter (NET) (Homo sapiens, UniProt P23975); assay type: cell-based; details: read-out: NET IC50 (transporter assay)
T2 construct: HA (N); host or cells: HEK293 (ATCC CRL-1573), electroporated, G418-selected population

[3] = molecular target: T1, Cannabinoid Receptor Type 1 (CB1); details: read-out: CB1 EC50 (35S-GTPγS)
[4] = molecular target: T3, Dopamine Transporter (DAT) (Homo sapiens, UniProt Q01959); assay type: cell-based; details: read-out: DAT IC50 (transporter assay)
T3 construct: HA (N); host or cells: HEK293 (ATCC CRL-1573), electroporated, G418-selected population

[5] = molecular target: T3, Dopamine Transporter (DAT); details: read-out: Target Binding Affinity Determined by Competition Radioligand Binding–KI, DAT

Buprenorphine
< 5.70: pKi [1] | pIC50 [2] | pEC50 [3] | pIC50 [4] | pKi [5]

pEC50, pIC50, pKi: −log10 of the molar value.
